## Yeast mating assay 2: variants of the scFv Ab-95

Binding partner: SARS-CoV-2 spike HR2 peptide, sequence PDVDLGDISGINAS.

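The parent was found by panning a naive human phage display library on the peptide. Library AAYL52 holds single substitutions and randomly drawn double and triple substitutions in the CDRs. In AlphaSeq, yeast of one mating type display the scFv and yeast of the other type display the target. Mating (16 h, 30 °C) was followed by selection of diploids and sequencing of their barcodes. Scores were corrected for input abundance and mapped to Kd with protein pairs of known affinity run in the same pool. Each pool was mated in three replicate cultures.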

Ab-95 is the parent antibody, in scFv form: VH, then three GGGGS repeats, then VL. The heavy chain is unchanged in all variants.
VH: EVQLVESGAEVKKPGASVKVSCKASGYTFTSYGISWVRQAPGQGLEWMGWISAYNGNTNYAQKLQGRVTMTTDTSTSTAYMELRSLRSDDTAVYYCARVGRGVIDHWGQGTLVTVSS
VL: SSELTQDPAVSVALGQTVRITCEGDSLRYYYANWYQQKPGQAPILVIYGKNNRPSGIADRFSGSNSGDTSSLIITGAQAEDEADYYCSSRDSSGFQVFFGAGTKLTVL

Each variant is given by its three light chain CDRs, as the data file delimits them; those of the parent are EGDSLRYYYAN, GKNNRPS, SSRDSSGFQVF.
This list gathers variants with a substitution at Y29 (VL, numbered from residue 1).
Numbers give log10(Kd / nM), so 0 is 1 nM and 3 is 1 µM. Smaller is tighter.
Averages over replicates are reported, and they cover detected replicates only.
"nd" marks a missing value. The strain was present, yet no cells mated with the target were sequenced in any replicate, which points to weak or no binding.
Background: pairings of library AAYL52 with three empty control strains gave a value in 28% of cases (median 3.91, 5th percentile 2.90). Values in that range, when seen in few replicates, are hard to tell from nonspecific mating.

- EGDSLRQGYAN, GKNNNPS, SSRDSSGFQVF = 1.85 (3 of 3 replicates)
- EGDSLRLYYAN, GKNCRPS, ESRDSSGFQVF = 4.85 (1 of 3 replicates)
- EGDSLRWYYAN, GKNNRPS, SSRDSSTFQFF = 2.76 (3 of 3 replicates)
- RGDSLRLYFAN, GKNNRPS, SSRDSSGFQVF = 2.89 (3 of 3 replicates)
- EGASLRWYYAN, GKNNRPS, SSTDSSGFQVF = 2.99 (2 of 3 replicates)
- EGDSLRDYYAN, GKNNRRS, SSRWSSGFQVF = 3.36 (3 of 3 replicates)
- EGDSLREYYAN, GKNNRPS, ASRFSSGFQVF = 2.10 (3 of 3 replicates)
- EGDSLRPYYAN, GKNNRPS, SSRDESIFQVF = nd (0 of 3 replicates)
- LGDSLRGYYAN, GKNNRPC, SSRDSSGFQVF = 2.51 (2 of 3 replicates)
- EGDSLRTYYFN, GKCNRPS, SSRDSSGFQVF = 3.44 (1 of 3 replicates)
- EGDSLRAYYAN, GKNGRPS, SSRDSSGFEVF = 2.24 (3 of 3 replicates)
- EGDSLRCCYAN, GKGNRPS, SSRDSSGFQVF = 2.19 (3 of 3 replicates)
- EIPSLRLYYAN, GKNNRPS, SSRDSSGFQVF = 3.27 (3 of 3 replicates)
- EGESLRKYYAN, GKNNRPS, SSRRSSGFQVF = 2.65 (3 of 3 replicates)
- EGDSLRMYLAN, GKKNRPS, SSRDSSGFQVF = 4.60 (2 of 3 replicates)
- NGDSLRKYYAN, GKNNRPS, SSPDSSGFQVF = 3.57 (2 of 3 replicates)
- EGDSLRQYYAN, GKNNFPS, SSRDSSDFQVF = 3.81 (2 of 3 replicates)
- EVDTLRFYYAN, GKNNRPS, SSRDSSGFQVF = 5.42 (2 of 3 replicates)
- EGDSLCHYYAN, GKNNPPS, SSRDSSGFQVF = 3.17 (2 of 3 replicates)
- EGDSLRSYYAN, GKNNRPS, SSRDSSGYQVF = 1.37 (3 of 3 replicates)
- EGDSLIGYYAN, GKNNRPS, SWRDSSGFQVF = 2.90 (3 of 3 replicates)
- EGDSLRNYYAN, GKINRDS, SSRDSSGFQVF = 3.89 (3 of 3 replicates)
- EGDSLRLYYAN, GKINRPS, SSRDSSGFQEF = nd (0 of 3 replicates)
- EGKSLRNYYAN, GKNNRPN, SSRDSSGFQVF = 1.71 (3 of 3 replicates)
- EGDSVHRYYAN, GKNNRPS, SSRDSSGFQVF = 4.04 (3 of 3 replicates)
- EGTSLLDYYAN, GKNNRPS, SSRDSSGFQVF = 1.44 (3 of 3 replicates)
- EGDSLRPYTAN, IKNNRPS, SSRDSSGFQVF = nd (0 of 3 replicates)
- EGDTLRQYYAN, GKNNRPS, SSRDSLGFQVF = 2.87 (3 of 3 replicates)
- EGDSLRKYYMN, GKNNRPS, SSRDSSGFQAF = 3.93 (2 of 3 replicates)
- EYDSLRLYYAN, GKNNRPS, SSRDSSGFQMF = 3.77 (1 of 3 replicates)
- EGDSLFGYYAN, EKNNRPS, SSRDSSGFQVF = 3.32 (3 of 3 replicates)
- EIDSLRWYKAN, GKNNRPS, SSRDSSGFQVF = 3.54 (3 of 3 replicates)
- EGDSLRNYYAN, GKYNRPS, SSRDSSGVQVF = 2.55 (3 of 3 replicates)
- EGDLLREYYAN, GKNNRPS, SSRDSSGFQVF = 4.28 (1 of 3 replicates)
- EGDSLREYYAN, GKNNRPS, SRRDSSGFQVF = 2.25 (3 of 3 replicates)
- EGDSLRFYYAN, GKNDRPS, SSRDSSGFQVN = 3.51 (2 of 3 replicates)
- EGDSLRIYYAN, GKQNNPS, SSRDSSGFQVF = 4.25 (1 of 3 replicates)

The 5 strongest on average among those seen in every replicate, once more:

CDR-L1,CDR-L2,CDR-L3,"log10 Kd (nM), mean",detected
EGDSLRSYYAN,GKNNRPS,SSRDSSGYQVF,1.37,3/3
EGTSLLDYYAN,GKNNRPS,SSRDSSGFQVF,1.44,3/3
EGKSLRNYYAN,GKNNRPN,SSRDSSGFQVF,1.71,3/3
EGDSLRQGYAN,GKNNNPS,SSRDSSGFQVF,1.85,3/3
EGDSLREYYAN,GKNNRPS,ASRFSSGFQVF,2.10,3/3

The measurements come from Engelhart et al. 2022 (doi:10.1038/s41597-022-01779-4) through the FLAb antibody collection.